# From PubChem BioAssay AID2544 (Sanford-Burnham Center for Chemical Genomics, 2010)
# Sequences of proteins named here, by UniProt entry; tags and fusion partners are left off.
# UniProt P09923, whole entry: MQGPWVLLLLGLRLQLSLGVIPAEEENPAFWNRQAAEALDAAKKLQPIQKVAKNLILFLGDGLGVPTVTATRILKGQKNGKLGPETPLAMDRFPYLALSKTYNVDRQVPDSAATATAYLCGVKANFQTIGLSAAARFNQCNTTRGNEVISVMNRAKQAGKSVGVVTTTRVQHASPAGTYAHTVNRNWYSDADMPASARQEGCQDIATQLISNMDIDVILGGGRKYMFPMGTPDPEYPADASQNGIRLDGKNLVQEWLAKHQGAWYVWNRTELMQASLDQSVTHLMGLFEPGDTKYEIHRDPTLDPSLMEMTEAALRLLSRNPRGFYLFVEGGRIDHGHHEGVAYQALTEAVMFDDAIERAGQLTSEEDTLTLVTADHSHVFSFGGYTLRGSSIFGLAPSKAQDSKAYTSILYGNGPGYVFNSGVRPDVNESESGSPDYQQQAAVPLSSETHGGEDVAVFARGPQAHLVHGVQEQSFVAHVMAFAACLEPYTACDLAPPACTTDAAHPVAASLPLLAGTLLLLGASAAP
# The entries are a selection whose mix differs from that of the whole data set. The source made the active and inactive calls.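 How the source made its calls: active means inhibition reaching a set limit with compound at 10 µM in the primary screen (cut at about 35% in these data); inactive means the rest.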
# Target: Intestinal-type alkaline phosphatase (Homo sapiens) (UniProt P09923)
# Assay: human IAP inhibitors, primary screen, biochemical, luminescence, uHTS (AID 2544);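 further: plate controls were DMSO wells with enzyme for no effect and no-enzyme buffer wells for full effect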
# Conditions: purified IAP, CDP-Star luminescence, 30 min; at 10 µM; stronger effect = higher value
row,Structure (SMILES),inhibition
1,CCC(=O)N(c1ccccc1)C1(COC)CCN(CCn2nnn(CC)c2=O)CC1,inactive: 3.5%
2,CCC(=O)N(c1ccccc1)C1(COC)CCN(CCc2cccs2)CC1,inactive: -12.5%
